The values that follow come from PMC7277649, “Amaryllidaceae Alkaloids of Belladine-Type from Narcissus pseudonarcissus cv. Carlton as New Selective Inhibitors of Butyrylcholinesterase” (Biomolecules, 2020).

The chains behind the UniProt entries cited, without tags or fusion partners. A line that says so, or that is headed by a name, gives the form on record, which may keep a tag or linker.
UniProt P22303, other isoform, or with tags, fused parts or gaps: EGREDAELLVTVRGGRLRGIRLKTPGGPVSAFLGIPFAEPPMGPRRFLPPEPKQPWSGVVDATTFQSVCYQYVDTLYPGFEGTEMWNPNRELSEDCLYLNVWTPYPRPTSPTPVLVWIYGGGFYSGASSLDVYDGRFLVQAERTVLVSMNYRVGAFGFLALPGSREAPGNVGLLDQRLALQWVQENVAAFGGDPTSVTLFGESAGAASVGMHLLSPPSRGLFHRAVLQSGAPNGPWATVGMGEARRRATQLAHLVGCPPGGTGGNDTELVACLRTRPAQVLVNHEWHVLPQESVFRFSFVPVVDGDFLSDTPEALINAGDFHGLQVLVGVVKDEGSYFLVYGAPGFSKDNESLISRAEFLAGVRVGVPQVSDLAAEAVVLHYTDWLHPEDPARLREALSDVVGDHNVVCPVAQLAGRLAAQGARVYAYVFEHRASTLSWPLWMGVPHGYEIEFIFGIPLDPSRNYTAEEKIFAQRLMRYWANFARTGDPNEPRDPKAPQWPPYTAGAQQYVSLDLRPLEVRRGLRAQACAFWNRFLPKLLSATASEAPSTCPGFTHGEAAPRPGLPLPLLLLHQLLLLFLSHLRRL

The target in this assay is T1, hAChE (Homo sapiens, UniProt P22303).
T1 construct: 8.3 μL of either blood cell lysate or plasma dilutions; from tissue; host or cells: blood cell lysate
The assay is described as follows: biochemical. As for the experimental part: The hAChE and hBuChE activities were determined using a modified method of Ellman, as described. Briefly, hAChE and hBuChE activities were determined using a modified method of Ellman, with acetylthiocholine iodide (ATChI) and butyrylthiocholine iodide (BuTChI) as substrates, respectively. Briefly, 8.3 μL of either blood cell lysate or plasma dilutions (at least six different concentrations), 283 μL of 5 mM 5,5′-dithiobis-2-nitrobenzoic acid (DTNB) and 8.3 μL of the sample dilution in dimethyl sulfoxide (DMSO) (40 mM, 10 mM, 4 mM, 1 mM, 0.4 mM, and 0 mM) were added to the semi-micro cuvette. The reaction was initiated by addition of 33.3 μL 10 mM substrate (ATChI or BuTChI). The final proportion of DTNB and substrate was […]. The increase of absorbance (ΔA) at 436 nm for AChE and 412 nm for BuChE was measured for 1 min at 37 °C using a spectrophotometer (Synergy^TM HT Multi-Detection Microplate Reader). Each measurement was repeated six times for every concentration of enzyme preparation.

Broadly, the IC50 is the point on the concentration scale where inhibition reaches its midpoint.

Turning to `COc1ccc2cc3[n+](cc2c1OC)CCc1cc2c(cc1-3)OCO2` [Berberine, berberine, reference compound], the concentration for half-maximal inhibition (IC50) was determined as 720 ± 110 nM.
